Measurements as given in paper PMC5818551, “Sequences Flanking the Gephyrin-Binding Site of GlyRβ Tune Receptor Stabilization at Synapses” (eNeuro, 2018).

How the values were obtained:
full-length gephyrin = molecular target: T1, full-length gephyrin (Rattus norvegicus, UniProt Q03555); test: ITC of GlyR β-loop variants with full-length gephyrin; format: binding
T1 construct: performed with recombinant full-length gephyrin rC4 or GephE, cloned into pQE80 vector; His-tag (inferred from pQE80 vector and Ni-NTA purification); made in house; host or cells: E. coli BL21
T1 sequence (Q03555 1-755 isoform Q03555-4): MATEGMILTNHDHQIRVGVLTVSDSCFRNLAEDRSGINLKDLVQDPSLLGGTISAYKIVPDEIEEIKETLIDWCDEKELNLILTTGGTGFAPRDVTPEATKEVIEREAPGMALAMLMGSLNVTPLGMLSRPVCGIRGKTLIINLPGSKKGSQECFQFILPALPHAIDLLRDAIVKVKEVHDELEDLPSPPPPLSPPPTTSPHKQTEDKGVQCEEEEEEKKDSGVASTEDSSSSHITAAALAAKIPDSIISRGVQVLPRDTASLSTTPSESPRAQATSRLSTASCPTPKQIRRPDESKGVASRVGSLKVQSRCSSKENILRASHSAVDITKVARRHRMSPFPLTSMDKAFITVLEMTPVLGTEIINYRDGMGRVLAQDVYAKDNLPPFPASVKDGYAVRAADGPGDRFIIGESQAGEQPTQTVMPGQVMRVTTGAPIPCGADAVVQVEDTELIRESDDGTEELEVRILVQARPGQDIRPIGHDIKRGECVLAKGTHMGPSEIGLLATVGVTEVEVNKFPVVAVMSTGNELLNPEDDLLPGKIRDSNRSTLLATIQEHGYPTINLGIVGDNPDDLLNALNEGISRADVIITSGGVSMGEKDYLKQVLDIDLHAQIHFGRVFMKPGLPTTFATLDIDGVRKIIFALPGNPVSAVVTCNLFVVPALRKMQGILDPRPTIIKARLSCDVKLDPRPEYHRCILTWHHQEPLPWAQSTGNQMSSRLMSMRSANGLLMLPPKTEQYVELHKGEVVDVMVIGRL

[1] = mean ± SEM, three or more independent measurements, SEM

binding stoichiometry with gephyrin (N), one-site binding model (full-length gephyrin; 25°C, averaged values, n = 4-9)	Binding enthalpy ΔH, one-site model (full-length gephyrin; [1])	Binding entropy ΔS, one-site model (full-length gephyrin; [1])	Deff of extrasynaptic trajectories (sptPALM, rat spinal cord neurons), Q1/Q2/Q3; value: the median Q2 (full-length gephyrin rC4)	Deff of synaptic trajectories (sptPALM, rat spinal cord neurons), Q1/Q2/Q3; value: the median Q2 (full-length gephyrin rC4)	explored area of extrasynaptic trajectories (sptPALM, rat spinal cord neurons), Q1/Q2/Q3; value: the median Q2 (full-length gephyrin rC4)	explored area of synaptic trajectories (sptPALM, rat spinal cord neurons), Q1/Q2/Q3; value: the median Q2 (full-length gephyrin rC4)	Molecule
0.241±0.023	–13.8 ± 3.2 kcal/mol	–21.7 ± 11 cal/mol * K	–	–	–	–	CC[C@H](C)[C@H](NC(=O)[C@H](CO)NC(=O)[C@H](Cc1ccccc1)NC(=O)[C@H](CC(=O)O)NC(=O)[C@H](CC(N)=O)NC(=O)[C@H](CO)NC(=O)[C@H](CCCNC(=N)N)NC(=O)[C@H](CC(C)C)NC(=O)[C@H](CC(=O)O)NC(=O)[C@H](CO)NC(=O)[C@H](CCCCN)NC(=O)[C@H](CO)NC(=O)[C@@H](NC(=O)[C@H](CS)NC(=O)[C@@H](NC(=O)[C@H](CCCCN)NC(=O)[C@H](CCCCN)NC(=O)[C@H](CS)NC(=O)[C@H](CCCNC(=N)N)NC(=O)[C@@H](NC(=O)[C@H](CCC(=O)O)NC(=O)CNC(=O)[C@@H](N)C(C)C)[C@@H](C)O)C(C)C)[C@@H](C)O)C(=O)N[C@H](C(=O)NCC(=O)N[C@@H](CO)C(=O)N[C@@H](CC(C)C)C(=O)N1CCC[C@H]1C(=O)N[C@@H](CCCNC(=N)N)C(=O)N1CCC[C@H]1C(=O)NCC(=O)N[C@@H](CCC(=O)O)C(=O)N[C@@H](CC(C)C)C(=O)N[C@@H](CO)C(=O)N[C@@H](CC(N)=O)C(=O)N[C@@H](Cc1ccc(O)cc1)C(=O)N[C@@H](CC(=O)O)C(=O)N[C@@H](CS)C(=O)N[C@@H](Cc1ccc(O)cc1)C(=O)NCC(=O)N[C@@H](CCCCN)C(=O)N1CCC[C@H]1C(=O)N[C@H](C(=O)N[C@@H](CCC(=O)O)C(=O)N[C@H](C(=O)N[C@@H](CC(N)=O)C(=O)N[C@@H](CC(N)=O)C(=O)NCC(=O)N[C@@H](CC(C)C)C(=O)O)C(C)C)[C@@H](C)CC)C(C)C [βL-D407P/F408G]
–	–	–	0.07 µm^2 · s^−1	0.05 µm^2 · s^−1	0.00163 µm^2	0.00123 µm^2	TMD-βL-wt: β-loop of GlyRβ (N334-A455) fused at its C terminus to a single TM of syntaxin and extracellular Dendra2
